Data from ChEMBL document CHEMBL3758094, “Thioxocoumarins Show an Alternative Carbonic Anhydrase Inhibition Mechanism Compared to Coumarins” (J Med Chem, 2016).

Target: Carbonic anhydrase 9 (Homo sapiens, UniProt Q16790)

Q: How did the pKi turn out when `S=c1ccc2ccccc2s1` was run?
A: 4.71

pKi: −log10 of the molar value.
